A word on the inhibition: it is the change of the read-out against control, counted positive when it falls.

Sequences of proteins named here, by UniProt entry; tags and fusion partners are left off.
UniProt O43353, whole entry: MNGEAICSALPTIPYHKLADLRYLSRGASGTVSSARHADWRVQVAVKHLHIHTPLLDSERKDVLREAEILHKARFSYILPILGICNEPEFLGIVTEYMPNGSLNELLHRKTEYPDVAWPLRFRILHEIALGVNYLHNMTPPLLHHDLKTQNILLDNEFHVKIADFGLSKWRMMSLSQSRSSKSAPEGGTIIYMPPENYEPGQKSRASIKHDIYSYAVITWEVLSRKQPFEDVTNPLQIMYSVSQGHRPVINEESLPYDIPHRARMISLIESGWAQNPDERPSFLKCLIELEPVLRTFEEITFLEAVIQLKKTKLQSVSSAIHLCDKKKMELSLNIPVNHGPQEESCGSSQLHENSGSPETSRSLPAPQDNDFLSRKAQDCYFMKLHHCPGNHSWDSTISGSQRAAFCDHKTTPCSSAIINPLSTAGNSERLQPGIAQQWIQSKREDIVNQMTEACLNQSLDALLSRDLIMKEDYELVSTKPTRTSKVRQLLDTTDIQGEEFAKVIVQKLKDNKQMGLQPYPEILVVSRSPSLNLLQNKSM

The entries are a selection whose mix differs from that of the whole data set. Active and inactive are the calls of the source. No stated cut-off is given here; in the data, active means inhibition above about 21%; inactive means the rest.

The assay addresses Receptor-interacting serine/threonine-protein kinase 2 (Homo sapiens) (UniProt O43353). Kind of assay: NOD2-RIPK2 binding disruptors in cells, primary screen, fluorescence, CHO cells, BLA complementation (AID 624267).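 Further: 0% = vehicle only and 100% = reference blocker.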 The settings on record: CHO BLA complementation NOD2-RIPK2, CCF4 ratio; at 4.98 µM; active compounds read high.
For `CN1CCC(Nc2ccc(Cl)cc2)CC1`, the inhibition is inactive: -1.03%.

As for `CCC(CO)(C(=O)OC1CN2CCC1CC2)c1ccccc1` (stereo not given), the inhibition was inactive: 4.33%.

On to `COc1cc(OC)cc(C(=O)NCC2(N3CCOCC3)CCCCC2)c1`, for which the inhibition is inactive: -12.1%.

In the case of `COc1cccc(C(c2nnnn2C2CCCC2)N2CCC(n3c(=O)[nH]c4ccccc43)CC2)c1OC` (stereo not given), the inhibition was inactive: -4.93%.

As for `COc1cccc(C(=O)N(c2cc(C)cc(C)c2)C2CCN(C(=O)OC(C)(C)C)CC2)c1`, the inhibition was inactive: -2.88%.

For the compound `O=c1[nH]c2ccccc2n1C1CCN(C(c2cc3ccccc3o2)c2nnnn2C2CCCC2)CC1` (stereo not given), the inhibition was inactive: 5.35%.

Turning to `CCCOc1ccc(C(=O)NCC2(N(C)C)CCCCC2)cc1`, the inhibition is inactive: -1.03%.

For `CC(C)(C)OC(=O)N1CCC(Nc2ccccc2)CC1`, the inhibition was inactive: -9.15%.

Consider `O=C(O)C1(Nc2ccccc2)CCN(Cc2ccccc2)CC1`, for which the inhibition was inactive: -5.94%.

In the case of `NN(c1ccccc1)C1CCN(CCc2ccccc2)CC1`, the inhibition was inactive: 13.7%.

In the case of `CCOc1ncccc1C(=O)NCC1(N2CCOCC2)CCCCC1`, the inhibition was inactive: 3.73%.

With `CN1CCC(Nc2ccc(F)c(Cl)c2)CC1`, the inhibition is inactive: 3.78%.

For `O=C(NCC1(N2CCCCC2)CCCCC1)c1ccco1`, the inhibition is inactive: -13.3%.

`CN(C)c1ccc(C(=O)NCC2(N3CCCCC3)CCCCC2)cc1`: the inhibition is inactive: 4.58%.

Consider `Cn1c(=O)[nH]cc(N(CCCl)CCCl)c1=O`, for which the inhibition was inactive: -5.71%.

In the case of `Cc1ccccc1NC1(C#N)CCN(Cc2ccccc2)CC1`, the inhibition was inactive: -7.58%.

In the case of `COc1ccc(C(c2nnnn2C2CCCCC2)N2CCC(n3c(=O)[nH]c4ccccc43)CC2)cc1` (stereo not given), the inhibition is inactive: 11.6%.

As for `CCN1CCC(Nc2cccc(F)c2)CC1`, the inhibition is inactive: 5.45%.

For the compound `CC(C)(C)n1nnnc1C(c1ccnc2ccccc12)N1CCC(n2c(=O)[nH]c3ccccc32)CC1` (stereo not given), the inhibition is inactive: -20.9%.

With `Cc1ccc(NC2(C#N)CCN(Cc3ccccc3)CC2)cc1`, the inhibition is inactive: -5.92%.

As for `Cc1ccc(C(=O)NCC2(N3CCCCC3)CCCCC2)o1`, the inhibition is inactive: -4.38%.

Take `Fc1ccccc1NC1CCN(Cc2ccccc2)CC1`: the inhibition was inactive: 8.14%.

Turning to `COc1cc(OC)cc(C(=O)NCC2(N3CCCCC3)CCCCC2)c1`, the inhibition was inactive: -2.42%.

`O=c1[nH]c2ccccc2n1C1CCN(C(c2ccnc3ccccc23)c2nnnn2C2CCCCC2)CC1` (stereo not given): the inhibition was inactive: 3.97%.

Take `COc1cccc(C(c2nnnn2C2CCCCC2)N2CCC(n3c(=O)[nH]c4ccccc43)CC2)c1OC` (stereo not given): the inhibition was inactive: -11.2%.

On to `CC(=O)N(c1ccccc1)C1CCNCC1`, for which the inhibition was inactive: -13.7%.

In the case of `CCC(c1nnnn1C1CCCCC1)N1CCC(n2c(=O)[nH]c3ccccc32)CC1` (stereo not given), the inhibition is inactive: -5.19%.

On to `CC(C)(C)n1nnnc1C(c1cccc2ccccc12)N1CCC(n2c(=O)[nH]c3ccccc32)CC1` (stereo not given), for which the inhibition was inactive: 1.25%.

Consider `c1ccc(CN2CCC(Nc3ccccc3)CC2)cc1`, for which the inhibition was inactive: 1.32%.

For the compound `CCCN1CCC(Nc2cc(OC)cc(OC)c2)CC1`, the inhibition is inactive: 5.47%.

For the compound `O=c1[nH]c2ccccc2n1C1CCN(C(c2ccccc2)c2nnnn2C2CCCC2)CC1` (stereo not given), the inhibition was inactive: 3.27%.

On to `Cc1cc(N(CCCl)CCCl)ccc1C=O`, for which the inhibition is inactive: 0.57%.

For the compound `CN(C)C1(CNC(=O)c2cccc(C#N)c2)CCCCC1`, the inhibition was inactive: -17%.

With `CC(C)(C)OC(=O)N1CCC(N(C(=O)c2ccccc2)c2ccc(Cl)cc2)CC1`, the inhibition was inactive: -22.7%.

In the case of `N#Cc1ccc(C(=O)NCC2(N3CCCCC3)CCCCC2)cc1`, the inhibition is inactive: 0.63%.

For `CCCCn1nnnc1C(c1cccc(OC)c1OC)N1CCC(n2c(=O)[nH]c3ccccc32)CC1` (stereo not given), the inhibition is inactive: -9.34%.

For `O=C(OC1CN2CCC1CC2)C1c2ccccc2C=Cc2ccccc21` (stereo not given), the inhibition is inactive: 0.02%.

For the compound `O=c1[nH]c2ccccc2n1C1CCN(C(c2cccs2)c2nnnn2C2CCCC2)CC1` (stereo not given), the inhibition is inactive: 0.94%.

On to `N/C(=N\O)c1c(N)no[n+]1[O-]`, for which the inhibition was inactive: -10%.

Consider `CCOC(=O)N1CCC(Nc2ccc(C)cc2)CC1`, for which the inhibition is inactive: -0.92%.

As to `COc1cccc(C(c2nnnn2C(C)(C)C)N2CCC(n3c(=O)[nH]c4ccccc43)CC2)c1OC` (stereo not given), the inhibition was inactive: -1.69%.

On to `COc1ccc(C(=O)NCC2(N3CCOCC3)CCCCC2)cc1OC`, for which the inhibition is inactive: -5.5%.

Turning to `O=c1[nH]c2ccccc2n1C1CCN(C(c2ccnc3ccccc23)c2nnnn2C2CCCC2)CC1` (stereo not given), the inhibition is inactive: 0.93%.

Turning to `O=c1[nH]c2ccccc2n1C1CCN(C(c2cccs2)c2nnnn2C2CCCCC2)CC1` (stereo not given), the inhibition is inactive: 0.72%.

In the case of `O=C(NCC1(N2CCOCC2)CCCCC1)c1cc(Br)ccc1Cl`, the inhibition was inactive: -6.61%.

Turning to `CCCCn1nnnc1C(c1ccccc1)N1CCC(n2c(=O)[nH]c3ccccc32)CC1` (stereo not given), the inhibition was inactive: 13.2%.

Regarding `COc1cc(C(=O)NCC2(N3CCOCC3)CCCCC2)cc(OC)c1C`, the inhibition is inactive: -12.2%.

Turning to `Cc1ccc(C(=O)NCC2(N(C)C)CCCCC2)o1`, the inhibition was inactive: -9.8%.

With `CCCOc1ccc(C(=O)NCC2(N(C)C)CCCCC2)cc1OC`, the inhibition is inactive: 3.44%.

Regarding `COc1ccc(C(c2nnnn2C2CCCC2)N2CCC(n3c(=O)[nH]c4ccccc43)CC2)cc1` (stereo not given), the inhibition is inactive: -6.98%.

As to `CN1CCC(Nc2cccc(F)c2)CC1`, the inhibition was inactive: -10.3%.

As for `O=C(NCC1(N2CCCCC2)CCCCC1)c1cncc(Br)c1`, the inhibition was inactive: -6.16%.

For `CCCCn1nnnc1C(c1ccnc2ccccc12)N1CCC(n2c(=O)[nH]c3ccccc32)CC1` (stereo not given), the inhibition was inactive: 1.16%.

For `COc1cc(OC)c(C(=O)NCC2(N(C)C)CCCCC2)cc1OC`, the inhibition is inactive: -9.52%.

With `CCC(c1nnnn1C(C)(C)C)N1CCC(n2c(=O)[nH]c3ccccc32)CC1` (stereo not given), the inhibition was inactive: -8.18%.

For the compound `O=C(NCC1(N2CCOCC2)CCCCC1)c1cc(F)c(F)cc1Cl`, the inhibition was inactive: -3.05%.

Consider `COc1ccc(CN(CCCl)CCCl)cc1Cl`, for which the inhibition was inactive: -2.87%.

For `CN(C)c1cccc(C(=O)NCC2(N3CCCCC3)CCCCC2)c1`, the inhibition is inactive: 2.19%.

As to `CCCCn1nnnc1C(c1ccccc1OC(F)(F)F)N1CCC(n2c(=O)[nH]c3ccccc32)CC1` (stereo not given), the inhibition was inactive: -6.65%.

Take `CC(C)c1ccc(NC2CCN(C(=O)OC(C)(C)C)CC2)cc1`: the inhibition is inactive: -1.97%.
